For one test, the system named is HBV. Description: 4-week treatment course in HBV chronically infected patients: HBV replication markers (pgRNA, HBcrAg, HBsAg). Format: in vivo, human. Conditions: change from baseline at day 29; Placebo + weekly sub-cutaneous Peg-IFN.
Test [1] deals with HBV infected primary human hepatocytes (PHH). Briefly: HBV replication in infected primary human hepatocytes (PHH), FXR agonist +/- IFN-alpha. It counts as cell-based. The settings on record: treated day 4 to 10 post-infection, harvested day 10, GW4064 1 or 10 uM, IFN-alpha 100 IU/mL. The protocol: FIG. 3. […] Freshly prepared and seeded PHH were infected with HBV at a multiplicity of infection of 250 GE/cell. From day 4 to 10 post-infection, cells were treated with […], +/−IFN-alpha at 100 IU/mL, or vehicle (NT), or IFN-alpha at 100 IU/mL alone. Cells and supernatants were harvested at day 10 for intracellular HBV RNA, viremia, and secreted antigens (HBsAg and HBeAg) quantification. Results are the mean+/−SD of one experiment performed with three biological replicates.
FIG. 4. […] Freshly prepared and seeded PHH were infected with HBV at a multiplicity of infection of 250 GE/cell. From day 4 to 10 post-infection, cells were treated with Vonafexor at 10 uM, or Nidufexor at 10 uM, or Tropifexor at 1 uM, or OCA at 10 uM, or GW4064 at 10 uM, +/−IFN-alpha (IFN) at 100 IU/mL, or vehicle, or IFN-alpha at 100 IU/mL alone. Supernatants were harvested at day 10 for secreted HBs antigen (HBsAg) quantification. Results are the mean+/−SEM of five experiments performed with three replicates.
Supernatants containing HBV particles were clarified (0.45 μm filter) and concentrated with 8% PEG 8000 (Sigma-Aldrich).
HBV DNA was quantified using the AmpliPrep/COBAS® TaqMan® HBV Test (Roche).
HBs and HBe antigens secreted in cells supernatant were quantified, after required dilutions, with Autobio kits (AutoBio, China) according to manufacturer's protocol.
Total RNA was prepared using NucleoSpin RNA Plus (Macherey-Nagel). After DNA digestion with TURBO DNase (Ambion), maximum 1000 ng RNA were reverse-transcribed using High-Capacity RNA-to-cDNA kit (Thermo Fisher Scientific). […] All assays were performed in triplicate.
HBs antigen secreted in cells supernatant were quantified, after required dilutions, with Autobio kits (AutoBio, China) according to manufacturer's protocol.
PHH are naturally susceptible to infection with HBV virions produced in vitro, leading to very high levels of replication of the virus.

Regarding “Placebo + Peg-IFN: pegylated IFNα2a, weekly sub-cutaneous injections, given with placebo”, in the test on HBV, the “HBVpgRNA Mean” value is −0.2 Log10 Copies mL and the “HBcrAg Mean” value is listed as −0.4 Log10 IU mL.
Take “IFN-α: Interferon alpha-2 (ROFERON-A) purchased from Roche”: in test [1], the HBeAg secretion result is reported as “able to reduce”, the HBsAg secretion entry was “almost no effect”, the “intracellular HBV RNA level” value was “almost no effect” and the viremia result is “able to reduce”.

The record behind these values is US20240100125A1 (ENYO PHARMA, priority 2021, published 2024).
